According to PubChem BioAssay (Tox21):
Several values for one entry are separate records, joined by “and”; a condition that tells them apart may be missing. Identical values can stand only once. The entries are a selection whose mix differs from that of the whole data set. Results filed as inconclusive are left out. Activity calls are given as the source filed them. Calls follow the shape of the dose curve; as a rule, active = well fitted cell-killing curve with a large enough effect in the repeat runs; inconclusive = weak or mixed curves; inactive = no such curve, though single readings can be large or run the other way.

Experiment: qHTS assay to identify small molecule agonists of the peroxisome proliferator-activated receptor delta (PPARd) signaling pathway - cell viability counter screen (AID 743211); also: nearly all actives have a fitted effect of over 55% in size
Details: PPARd-bla HEK293H viability, CellTiter-Glo luminescence, 17 h; at 62.6 µM (top of the series)
Text: U.S. Tox21 Program National Center for Advancing Translational Sciences [NCATS] NIH Chemical Genomics Center [NCGC] U.S. Environmental Protection Agency [EPA] National Institutes of Environmental Health Sciences [NIEHS] National Toxicology Program [NTP] U.S. Food and Drug Administration [FDA] Tox21 Assay Overview: The peroxisome proliferator-activated receptors (PPARs) are lipid-activated transcription factors of the nuclear receptor superfamily with three distinct subtypes namely PPAR alpha, PPAR delta (PPARd) and PPAR gamma. All these subtypes heterodimerizes with Retinoid X receptor (RXR) and have different physiological functions. […] To identify the compounds that activate PPAR-delta signaling, GeneBLAzer PPAR delta UAS-bla HEK293H cell line (Invitrogen, Carlsbad, CA, USA) containing a beta-lactamase reporter gene under the control of an Upstream Activator Sequence (UAS) was used to screen the Tox21 compound library. The cytotoxicity of the Tox21 compound library against the PPARd-bla cell line was tested in parallel by measuring the cell viability using CellTiter-Glo assay (Promega, Madison, WI) in the same wells.
Tox21 Assay Protocol Summary: PPARd-bla cells were dispensed at 3000 cells/6uL/well in 1536-well black wall/clear bottom plates using a Multidrop Combi (Thermo Fisher Scientific, Waltham, MA) dispenser. After the assay plates were incubated at 37 C and 5% CO2 for 5 h, 23 nL of compounds dissolved in DMSO, positive controls or DMSO only was transferred to the assay plate by a Pintool station (Kalypsys, San Diego, CA). The assay plates were incubated at 37C for 17 h. After 1 uL of LiveBLAzerTM B/G FRET substrate was added using a Bioraptr Flying Reagent Dispenser (FRD) workstation (Beckman Coulter, Indianapolis, IN, USA), the plates were incubated at room temperature for 2 h, and fluorescence intensity was measured by an Envision plate reader (PerkinElmer, Shelton, CT). For cell viability readout that measures cytotoxicity, 3 ul/well of CellTiter-Glo reagent was added into the assay plates using a Bioraptr FRD. After 30 min incubation at room temperature, the luminescence intensity in the plates was measured using a ViewLux plate reader (PerkinElmer).
% is scaled to controls: 0 for no effect and ±100 for the full control effect.

SMILES	activity change, negative = cytotoxicity
CCOP(=O)(CC)OCC	inactive: 2.74%
Cc1ccc([N+](=O)[O-])cc1[N+](=O)[O-]	inactive: -0.0781% and inactive: 7.07%
COP(C)(=O)OC	inactive: -8.97%
Cc1ccc([N+](=O)[O-])c([N+](=O)[O-])c1	inactive: 7.07%
Cc1c([N+](=O)[O-])cccc1[N+](=O)[O-]	inactive: -3.01% and inactive: 4.24%
OCCSCCO	inactive: 3.64%
O=[N+]([O-])OCC(CO[N+](=O)[O-])(CO[N+](=O)[O-])CO[N+](=O)[O-]	inactive: 5.33%
C/C1=C2N=C(/C=C3N=C(/C(C)=C4\[N-][C@@](C)([C@@H]5N=C1[C@](C)(CCC(=O)NC[C@@H](C)OP(=O)([O-])O[C@H]1[C@@H](O)[C@@H](n6cnc7cc(C)c(C)cc76)O[C@@H]1CO)[C@H]5CC(N)=O)[C@@](C)(CC(N)=O)[C@@H]4CCC(N)=O)[C@@](C)(CC(N)=O)[C@@H]\3CCC(N)=O)C(C)(C)[C@@H]/2CCC(N)=O.[C-]#N.[Co+3]	inactive: -1.18%
[NH4+].[O-][Cl+3]([O-])([O-])[O-]	inactive: -7.03%
CC(C)N(CCO)C(C)C	inactive: 0.616%
CCOP(=O)(CC)Oc1ccc([N+](=O)[O-])cc1 (stereo not given)	inactive: -3.52%
CP(=O)(O)OCCC[Si](O)(O)O	inactive: 9.22%
O=[N+]([O-])[O-].[NH4+]	inactive: 11.3% and inactive: 6.58%
COc1ccc([N+](=O)[O-])cc1[N+](=O)[O-]	inactive: 1.61%

Same assay, conditions: PPARd-bla HEK293H viability, CellTiter-Glo luminescence, 17 h; at 81.1 µM (top of the series)

SMILES	activity change, negative = cytotoxicity
COP(C)(=O)OC	inactive: 0.578%
Cc1ccc([N+](=O)[O-])c([N+](=O)[O-])c1	inactive: 2.51%
O=[N+]([O-])c1cccc([N+](=O)[O-])c1	inactive: -12.7%
OCCSCCO	inactive: -2.61%
[NH4+].[O-][Cl+3]([O-])([O-])[O-]	inactive: -14%
N=C(N)N[N+](=O)[O-]	inactive: 4.18%
